Earlier results on one compound are cited in patent US20220323445A1, “REDUCING IMMUNOGENICITY TO PEGLOTICASE” (Horizon Therapeutics Ireland DAC, priority 2020, published 2022).

The conditions of this series: prophylaxis of gout; cited from earlier work.

As for `COc1cc2c(c(OC)c1OC)-c1ccc(OC)c(=O)cc1[C@@H](NC(C)=O)CC2` [colchicine], the diarrhea is 23%.
